Measured affinities in a library of Ab-14 heavy chain variants

Target peptide (SARS-CoV-2 spike, HR2 region): PDVDLGDISGINAS

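The starting antibody came from a phage panning campaign against this peptide. The variants were designed computationally from a first round of random CDR variants and then made and measured. Several design methods are mixed in this list. Affinity was read by AlphaSeq, a pooled yeast mating assay with surface-displayed partners. The frequency of each diploid, read from paired DNA barcodes, reflects how well the two displayed proteins bind. The ratio of observed to expected reads was calibrated, replicate by replicate, on BCL2-family standards whose Kd was known from biolayer interferometry. Each pool was mated in six replicate cultures.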

Ab-14 is the parent antibody, in scFv form: VH, then a 15-residue (Gly4Ser)3 linker, then VL. The light chain is unchanged in all variants.
VH: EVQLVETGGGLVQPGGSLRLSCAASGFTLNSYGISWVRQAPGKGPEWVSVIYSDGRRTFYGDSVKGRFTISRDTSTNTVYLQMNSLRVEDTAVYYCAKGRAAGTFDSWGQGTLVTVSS
VL: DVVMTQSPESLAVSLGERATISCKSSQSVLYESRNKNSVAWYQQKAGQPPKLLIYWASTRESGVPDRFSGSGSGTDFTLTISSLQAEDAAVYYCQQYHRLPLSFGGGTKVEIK

Sequences are complete VH domains. This list holds designs with at most six substitutions. Each Kd is an estimate from the mating assay, the geometric mean of the replicates in which the pair was seen; lower is stronger. Where no diploid with the target was found in any replicate, the entry reads "no signal": below detection, most likely a poor binder, though not proof of it. The range of this assay differs from that of the first round, and the authors advise against merging the two. As a blank, each scFv also met three strains without target: over all heavy chain designs, 1% of these pairings were detected, typically at 120 nM and seldom below 7.0 nM. In the paper, a design with two or fewer of six values counts as a poor binder.

| VH | Kd (apparent) | seen in |
|---|---|---|
| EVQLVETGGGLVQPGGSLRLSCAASKFSLNSYGISWVRQAPGKGPEWVSVIYSDGRRTFYIDSVKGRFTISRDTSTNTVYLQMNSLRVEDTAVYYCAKGNAAGTFDSWGQGTLVTVSS | no signal | 0 of 6 |
| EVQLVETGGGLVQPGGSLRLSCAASGFTLDSYGVSWVRQAPGKGPEWVSVIYSDGRRTFYTDQVKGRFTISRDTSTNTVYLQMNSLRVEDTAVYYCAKGRASGTFDSWGQGTLVTVSS | no signal | 0 of 6 |
| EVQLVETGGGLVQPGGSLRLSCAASGFTLNSYGISWVRQAPGKGPEWVSVIYSDGRRTFYDDSVKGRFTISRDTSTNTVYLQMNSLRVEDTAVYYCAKGQLAGTFWSWGQGTLVTVSS | no signal | 0 of 6 |
| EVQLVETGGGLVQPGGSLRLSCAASGFPLNSYGISWVRQAPGKGPEWVSVIYSDGRRTFYGDSVKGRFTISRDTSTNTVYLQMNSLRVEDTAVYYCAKRQAAGTKDSWGQGTLVTVSS | 270 nM | 3 of 6 |
| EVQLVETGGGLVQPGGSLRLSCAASGFTLNDYGISWVRQAPGKGPEWVSVIYSDGLRTFYIDSVKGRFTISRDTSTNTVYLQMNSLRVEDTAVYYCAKGRAAGTFDSWGQGTLVTVSS | 4.4 nM | 6 of 6 |
| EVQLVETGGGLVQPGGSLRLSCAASGFSLNAYGISWVRQAPGKGPEWVSVIYSDGRRTFYGDSVKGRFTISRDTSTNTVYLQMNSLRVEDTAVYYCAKGKTAGTFDSWGQGTLVTVSS | 2.1 nM | 6 of 6 |
| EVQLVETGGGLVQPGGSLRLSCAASGFTLNSYGISWVRQAPGKGPEWVSVIYSDGRRTFYGDTVKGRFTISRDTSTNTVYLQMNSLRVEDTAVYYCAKGRAAGTFDSWGQGTLVTVSS | no signal | 0 of 6 |
| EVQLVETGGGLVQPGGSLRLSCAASGFDLNSYGISWVRQAPGKGPEWVSVIYSDGRRTFYADQVKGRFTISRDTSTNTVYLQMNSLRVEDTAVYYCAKGRQAGTFDSWGQGTLVTVSS | no signal | 0 of 6 |
| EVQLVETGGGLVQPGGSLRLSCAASGFNLNSYGISWVRQAPGKGPEWVSVIYSDGRRTFYGDNVKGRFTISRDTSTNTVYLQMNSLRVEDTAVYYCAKGRQAGTFDSWGQGTLVTVSS | 4.8 nM | 6 of 6 |
| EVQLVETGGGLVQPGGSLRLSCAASGFTLNSYGISWVRQAPGKGPEWVSVIYSDGRRTFYGDSVKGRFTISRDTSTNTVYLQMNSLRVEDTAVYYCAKGRAAGTFLQWGQGTLVTVSS | no signal | 0 of 6 |
| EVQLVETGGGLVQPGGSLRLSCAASGFTLNSYGISWVRQAPGKGPEWVSVIYSDGRRTSYGDFVKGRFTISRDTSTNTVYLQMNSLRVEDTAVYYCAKGRAAGTFDSWGQGTLVTVSS | 140 nM | 3 of 6 |
| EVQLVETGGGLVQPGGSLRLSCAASGFTLNSYGISWVRQAPGKGPEWVSVIYSDGRRTFYRDSVKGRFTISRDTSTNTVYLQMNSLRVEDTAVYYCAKGRAAGTFDSWGQGTLVTVSS | no signal | 0 of 6 |
| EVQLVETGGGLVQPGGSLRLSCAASGFTLESYGISWVRQAPGKGPEWVSVIYSDGRRTAYGDSVKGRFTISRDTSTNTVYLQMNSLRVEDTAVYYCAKGRAAGTFDSWGQGTLVTVSS | 6.8 nM | 3 of 6 |
| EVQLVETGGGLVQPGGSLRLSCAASGFTLNEYGISWVRQAPGKGPEWVSVIYSDGRRTFYGDSVKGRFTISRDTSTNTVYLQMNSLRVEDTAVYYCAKGRMAGTFDAWGQGTLVTVSS | 11 nM | 6 of 6 |
| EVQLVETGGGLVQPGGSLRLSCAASGFDLNSYGISWVRQAPGKGPEWVSVIYSDGMRTFYIDSVKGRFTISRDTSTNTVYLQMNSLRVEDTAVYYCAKGRAAGTFDSWGQGTLVTVSS | 9.5 nM | 6 of 6 |
| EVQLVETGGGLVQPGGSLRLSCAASRFTLNEYGISWVRQAPGKGPEWVSVIYSDGRRTFYVDSVKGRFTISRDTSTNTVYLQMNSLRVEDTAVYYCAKGVFAGTFDSWGQGTLVTVSS | no signal | 0 of 6 |

Picked from the list: the 2 lowest averages where every replicate gave a value.

| VH | Kd (apparent) | seen in |
|---|---|---|
| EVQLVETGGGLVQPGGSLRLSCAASGFSLNAYGISWVRQAPGKGPEWVSVIYSDGRRTFYGDSVKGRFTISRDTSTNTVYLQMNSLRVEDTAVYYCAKGKTAGTFDSWGQGTLVTVSS | 2.1 nM | 6 of 6 |
| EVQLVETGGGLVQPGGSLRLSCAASGFTLNDYGISWVRQAPGKGPEWVSVIYSDGLRTFYIDSVKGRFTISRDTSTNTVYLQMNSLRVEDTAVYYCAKGRAAGTFDSWGQGTLVTVSS | 4.4 nM | 6 of 6 |

Source: Li et al. 2023 (doi:10.1038/s41467-023-39022-2), MIT Lincoln Laboratory and A-Alpha Bio; data file from the FLAb repository.